The target in this assay is Peroxisome proliferator-activated receptor gamma (Homo sapiens, UniProt P37231). As to the kind of experiment: Transactivation of Gal4 fused human PPARgamma LBD expressed in African green monkey COS7 cells after 42 hrs by dual luciferase reporter gene assay. Type of assay: cell-based. On the technique in general: Reporter assays use an easily measured gene product as a stand-in for the process of interest.

Protein sequences, listed by entry. Tags and fused reporters are not part of them. Lines headed by an entry give the natural chain unless they say otherwise; changes in a name come on top.
UniProt P37231: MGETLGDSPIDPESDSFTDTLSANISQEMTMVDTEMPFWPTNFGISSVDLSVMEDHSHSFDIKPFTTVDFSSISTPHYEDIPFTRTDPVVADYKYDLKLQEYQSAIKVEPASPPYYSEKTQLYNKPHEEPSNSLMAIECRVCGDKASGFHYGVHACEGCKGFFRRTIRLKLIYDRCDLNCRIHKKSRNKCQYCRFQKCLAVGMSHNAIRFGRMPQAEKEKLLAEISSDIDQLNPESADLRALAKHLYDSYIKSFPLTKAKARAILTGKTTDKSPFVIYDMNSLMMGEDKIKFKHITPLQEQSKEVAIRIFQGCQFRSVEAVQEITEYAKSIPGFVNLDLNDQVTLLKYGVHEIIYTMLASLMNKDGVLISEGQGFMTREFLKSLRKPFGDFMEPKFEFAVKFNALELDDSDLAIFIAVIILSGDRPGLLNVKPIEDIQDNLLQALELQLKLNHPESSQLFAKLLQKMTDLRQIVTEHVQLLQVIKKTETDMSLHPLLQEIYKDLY

As for `CCCc1nc2cc(-c3cccc(Cl)c3)ccc2n1Cc1ccc(-c2ccccc2C(=O)O)cc1`, the Activity entry is “Dose-dependent effect”.

Values taken from ChEMBL document CHEMBL3994588, “Importance of 5/6-aryl substitution on the pharmacological profile of 4'-((2-propyl-1H-benzo[d]imidazol-1-yl)methyl)-[1,1'-biphenyl]-2-carboxylic acid derived PPARγ agonists” (Eur J Med Chem, 2017).
